IC50 data for nine substances are collected here from patent US11033631B2, “Methods of treating CYP2D6 alternative metabolizers” (Nektar Therapeutics, priority 2008, dated 2021).

Sequences of proteins named here, by UniProt entry; tags and fusion partners are left off.
UniProt P08684, whole entry: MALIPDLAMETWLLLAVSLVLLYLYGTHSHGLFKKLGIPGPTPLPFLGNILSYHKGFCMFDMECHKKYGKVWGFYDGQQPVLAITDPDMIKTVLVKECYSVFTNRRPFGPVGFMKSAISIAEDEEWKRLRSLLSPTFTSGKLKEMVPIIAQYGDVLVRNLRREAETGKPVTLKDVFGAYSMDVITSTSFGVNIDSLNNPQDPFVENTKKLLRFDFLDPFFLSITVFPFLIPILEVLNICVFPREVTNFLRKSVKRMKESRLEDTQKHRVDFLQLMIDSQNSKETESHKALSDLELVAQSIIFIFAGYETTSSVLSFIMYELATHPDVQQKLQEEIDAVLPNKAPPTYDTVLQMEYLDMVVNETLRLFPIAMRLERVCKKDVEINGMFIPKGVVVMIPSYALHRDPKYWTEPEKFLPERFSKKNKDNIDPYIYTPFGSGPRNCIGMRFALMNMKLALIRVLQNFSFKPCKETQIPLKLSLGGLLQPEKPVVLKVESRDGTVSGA
UniProt P10635, whole entry: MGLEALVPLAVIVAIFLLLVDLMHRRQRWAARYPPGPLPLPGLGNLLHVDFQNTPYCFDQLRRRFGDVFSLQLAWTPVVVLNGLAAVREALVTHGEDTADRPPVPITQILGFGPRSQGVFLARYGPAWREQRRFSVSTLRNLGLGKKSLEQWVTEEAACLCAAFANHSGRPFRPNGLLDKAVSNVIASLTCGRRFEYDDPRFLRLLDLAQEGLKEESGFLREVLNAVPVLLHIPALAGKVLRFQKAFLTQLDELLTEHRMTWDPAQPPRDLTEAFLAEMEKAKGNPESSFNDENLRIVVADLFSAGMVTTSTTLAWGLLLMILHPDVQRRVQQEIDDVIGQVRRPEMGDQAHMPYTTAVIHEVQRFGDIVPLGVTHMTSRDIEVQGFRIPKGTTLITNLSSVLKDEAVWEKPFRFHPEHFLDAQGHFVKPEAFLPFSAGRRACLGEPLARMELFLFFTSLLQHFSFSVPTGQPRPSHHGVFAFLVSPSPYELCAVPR

Data set [1] addresses T1, CYP3A4 (Homo sapiens, UniProt P08684). To be noted: microsomes.
Data set [2] has as its target T1, CYP3A4. The note with it: microsomes. The source holds these as a separate data set.
A further data set concerns the target CYP2D6 (Homo sapiens, UniProt P10635). To be noted: read-out: CYP2D6 Inhibition of dextromethorphan O-demethylation IC50; human liver microsomes 0.1 mg/mL, test compound 0.1-25 μM, 5 minutes.

Where two headings read alike, the source gives them in different places.

The IC50 is the concentration that gives 50% inhibition. Regarding mPEG6-N-debrisoquine, the IC50 against CYP3A4 [1], on CYP3A4 [2] and on CYP2D6 was over 25 µM in each case.

mPEG5-desipramine: the results for the IC50 against CYP3A4 [1], on CYP3A4 [2] and at CYP2D6 were 13.3 µM, over 25 µM and 15.4 µM, respectively.

For the substance mPEG3-desipramine, the figures for the concentration for half-maximal inhibition (IC50) on CYP3A4 [1], against CYP3A4 [2] and on CYP2D6 were 14 µM, over 25 µM and 2.47 µM, respectively.

As for mPEG3-O-propranolol, the IC50 was 8.1 µM on CYP3A4 [1], over 25 µM on CYP3A4 [2] and 14.7 µM on CYP2D6.

In the case of mPEG8-N-debrisoquine, the IC50 on CYP3A4 [1], against CYP3A4 [2] and at CYP2D6 was over 25 µM in each case.

As to mPEG7-O-propranolol, the 50% inhibitory concentration (IC50) at CYP3A4 [1] is 10.7 µM; on CYP3A4 [2] it was over 25 µM; at CYP2D6, over 25 µM.

In the case of mPEG5-O-propranolol, the values for the IC50 against CYP3A4 [1], against CYP3A4 [2] and on CYP2D6 were 7.6 µM, over 25 µM and over 25 µM, respectively.

Take mPEG8-desipramine: the half-inhibitory concentration (IC50) on CYP3A4 [1] was 13.5 µM; against CYP3A4 [2], over 25 µM; on CYP2D6 it was over 25 µM.

For mPEG3-N-debrisoquine, the 50% inhibitory concentration (IC50) is over 25 µM against CYP3A4 [1], over 25 µM against CYP3A4 [2] and 11.3 µM at CYP2D6.
